Results on one molecule are retold here after PubChem BioAssay AID1451 (NMMLSC, 2008).

By UniProt entry, the sequences of proteins in these tests, tags left out.
UniProt P08183, whole entry: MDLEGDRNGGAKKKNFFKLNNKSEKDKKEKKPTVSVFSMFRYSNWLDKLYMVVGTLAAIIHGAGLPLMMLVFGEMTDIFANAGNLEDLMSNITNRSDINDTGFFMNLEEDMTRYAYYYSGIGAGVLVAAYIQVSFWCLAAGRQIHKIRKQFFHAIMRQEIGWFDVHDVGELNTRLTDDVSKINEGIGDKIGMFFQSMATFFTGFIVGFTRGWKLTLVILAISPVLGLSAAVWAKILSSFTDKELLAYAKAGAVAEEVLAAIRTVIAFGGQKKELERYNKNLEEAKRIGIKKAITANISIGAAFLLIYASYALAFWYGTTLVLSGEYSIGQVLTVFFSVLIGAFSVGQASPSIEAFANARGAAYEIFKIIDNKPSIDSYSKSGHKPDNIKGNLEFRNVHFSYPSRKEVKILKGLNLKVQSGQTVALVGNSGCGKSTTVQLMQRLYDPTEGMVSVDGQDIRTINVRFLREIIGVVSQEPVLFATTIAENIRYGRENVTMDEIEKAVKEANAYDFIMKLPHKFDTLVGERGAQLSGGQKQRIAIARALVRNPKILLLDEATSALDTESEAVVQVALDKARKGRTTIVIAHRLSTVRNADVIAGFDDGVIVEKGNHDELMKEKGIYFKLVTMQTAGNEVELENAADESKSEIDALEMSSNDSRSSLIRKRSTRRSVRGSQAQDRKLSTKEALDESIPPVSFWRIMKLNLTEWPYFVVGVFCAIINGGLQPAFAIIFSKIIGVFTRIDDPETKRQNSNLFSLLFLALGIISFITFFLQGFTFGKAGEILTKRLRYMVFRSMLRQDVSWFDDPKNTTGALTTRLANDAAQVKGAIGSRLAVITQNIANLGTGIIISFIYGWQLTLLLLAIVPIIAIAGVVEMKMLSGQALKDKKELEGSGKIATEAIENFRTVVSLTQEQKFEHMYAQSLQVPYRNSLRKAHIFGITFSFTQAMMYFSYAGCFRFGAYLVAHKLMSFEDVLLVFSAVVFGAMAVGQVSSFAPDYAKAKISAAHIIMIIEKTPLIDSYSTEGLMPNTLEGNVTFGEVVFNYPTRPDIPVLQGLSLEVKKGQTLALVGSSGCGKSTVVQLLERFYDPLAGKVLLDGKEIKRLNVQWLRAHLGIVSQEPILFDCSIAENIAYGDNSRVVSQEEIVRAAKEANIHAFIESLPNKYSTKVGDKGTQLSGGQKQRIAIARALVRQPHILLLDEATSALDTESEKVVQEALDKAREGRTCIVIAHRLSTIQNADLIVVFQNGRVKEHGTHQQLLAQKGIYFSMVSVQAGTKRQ

Structures are written as SMILES. Only a part is listed here, and it is no random draw. Some results for these compounds are left out of this collection, so the calls shown say nothing about other tests. Activity calls are given as the source filed them.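 The calls were made as follows: active = inhibition of pump activity above 50%; inactive = the rest.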

A word on the inhibition: it is the drop in the measured response relative to a control, in per cent.

The test has as its target ATP-dependent translocase ABCB1 (Homo sapiens) (UniProt P08183). Briefly: blockers of ABCB1-mediated dye efflux – cell-based, single point, ABCG2 counter-screen, confirmation (AID 1451).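 Also: 0% = DMSO and 100% = nicardipine full pump inhibition.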 Particulars: CCRF-Adr cells, JC-1 efflux, flow cytometry; at 6.6 µM; active compounds read high. A digest of the protocol: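 Material – ABCB1-expressing CCRF-Adr cells · Quantity – 3 million cells per mL final in well · Reagent – JC-1 substrate · Dosing – single test-compound dose, 6.6 µM final · Schedule – 10 min exposure, 25 °C · Technique – flow cytometry, 530 nm emission · Benchmarks – nicardipine as high control, DMSO as low control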
In general terms: The purpose of a counterscreen is to sort out artefacts and off-target activity.

In the case of `CN(C)c1cccc(C(=O)NCC2(N(C)C)CCCCC2)c1`, the inhibition is inactive: -1.23%.
